What follows are compounds tested on IL-2 (assay: Inflammatory cytokine release from PBMCs induced by PHA (flow cytometry CBA)). Settings: 0.1 µM; PBMCs, PHA 1 µg/mL, 24 h.

The chains behind the UniProt entries cited, without tags or fusion partners.
UniProt Q96SW2, whole entry: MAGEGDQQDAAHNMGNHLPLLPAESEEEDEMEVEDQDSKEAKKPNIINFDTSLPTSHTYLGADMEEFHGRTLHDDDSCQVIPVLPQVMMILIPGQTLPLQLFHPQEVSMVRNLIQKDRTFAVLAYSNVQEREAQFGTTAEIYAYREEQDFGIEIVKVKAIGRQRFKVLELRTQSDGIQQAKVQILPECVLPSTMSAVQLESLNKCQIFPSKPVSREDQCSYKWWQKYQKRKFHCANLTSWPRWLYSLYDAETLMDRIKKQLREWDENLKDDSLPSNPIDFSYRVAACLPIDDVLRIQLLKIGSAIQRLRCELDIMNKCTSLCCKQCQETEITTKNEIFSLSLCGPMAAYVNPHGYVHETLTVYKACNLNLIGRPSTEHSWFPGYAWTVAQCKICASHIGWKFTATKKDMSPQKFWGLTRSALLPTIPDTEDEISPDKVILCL
UniProt P48729, whole entry: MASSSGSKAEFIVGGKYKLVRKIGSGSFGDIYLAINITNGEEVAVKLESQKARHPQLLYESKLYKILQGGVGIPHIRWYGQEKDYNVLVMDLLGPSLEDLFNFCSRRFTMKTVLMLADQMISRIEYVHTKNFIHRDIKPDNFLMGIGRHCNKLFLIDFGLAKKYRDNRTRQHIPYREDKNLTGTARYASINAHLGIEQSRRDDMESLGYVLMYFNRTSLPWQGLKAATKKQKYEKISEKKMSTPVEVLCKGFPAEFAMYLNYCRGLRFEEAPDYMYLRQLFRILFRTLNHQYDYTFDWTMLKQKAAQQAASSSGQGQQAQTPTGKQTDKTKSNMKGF
UniProt P15170, whole entry: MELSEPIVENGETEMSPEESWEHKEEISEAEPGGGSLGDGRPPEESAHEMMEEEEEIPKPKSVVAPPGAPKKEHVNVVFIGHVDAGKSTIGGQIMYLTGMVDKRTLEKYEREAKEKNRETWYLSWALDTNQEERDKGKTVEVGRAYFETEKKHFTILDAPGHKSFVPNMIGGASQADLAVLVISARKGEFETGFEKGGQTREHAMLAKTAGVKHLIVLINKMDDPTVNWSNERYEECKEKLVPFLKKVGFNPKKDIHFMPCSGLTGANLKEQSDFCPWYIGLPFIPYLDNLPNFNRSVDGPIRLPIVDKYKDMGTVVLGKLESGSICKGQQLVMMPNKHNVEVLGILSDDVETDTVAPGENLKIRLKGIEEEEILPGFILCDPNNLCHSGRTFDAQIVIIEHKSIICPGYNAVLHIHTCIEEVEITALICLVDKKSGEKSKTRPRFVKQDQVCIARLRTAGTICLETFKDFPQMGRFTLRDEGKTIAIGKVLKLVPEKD
UniProt Q13422, whole entry: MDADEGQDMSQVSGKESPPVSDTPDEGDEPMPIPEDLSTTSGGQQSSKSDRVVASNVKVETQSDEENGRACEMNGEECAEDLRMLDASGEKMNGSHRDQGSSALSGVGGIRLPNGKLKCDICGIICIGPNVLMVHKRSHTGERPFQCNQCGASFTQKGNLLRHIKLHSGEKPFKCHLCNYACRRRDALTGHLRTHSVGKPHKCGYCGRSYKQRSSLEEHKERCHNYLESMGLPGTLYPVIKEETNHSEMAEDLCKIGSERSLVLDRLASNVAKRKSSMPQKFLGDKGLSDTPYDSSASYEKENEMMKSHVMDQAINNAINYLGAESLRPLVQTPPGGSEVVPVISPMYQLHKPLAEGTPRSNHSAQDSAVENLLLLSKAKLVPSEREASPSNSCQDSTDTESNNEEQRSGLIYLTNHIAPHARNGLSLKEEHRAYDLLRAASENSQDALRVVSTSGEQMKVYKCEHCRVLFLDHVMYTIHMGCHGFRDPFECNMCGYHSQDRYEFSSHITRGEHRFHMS
UniProt Q9UKS7, whole entry: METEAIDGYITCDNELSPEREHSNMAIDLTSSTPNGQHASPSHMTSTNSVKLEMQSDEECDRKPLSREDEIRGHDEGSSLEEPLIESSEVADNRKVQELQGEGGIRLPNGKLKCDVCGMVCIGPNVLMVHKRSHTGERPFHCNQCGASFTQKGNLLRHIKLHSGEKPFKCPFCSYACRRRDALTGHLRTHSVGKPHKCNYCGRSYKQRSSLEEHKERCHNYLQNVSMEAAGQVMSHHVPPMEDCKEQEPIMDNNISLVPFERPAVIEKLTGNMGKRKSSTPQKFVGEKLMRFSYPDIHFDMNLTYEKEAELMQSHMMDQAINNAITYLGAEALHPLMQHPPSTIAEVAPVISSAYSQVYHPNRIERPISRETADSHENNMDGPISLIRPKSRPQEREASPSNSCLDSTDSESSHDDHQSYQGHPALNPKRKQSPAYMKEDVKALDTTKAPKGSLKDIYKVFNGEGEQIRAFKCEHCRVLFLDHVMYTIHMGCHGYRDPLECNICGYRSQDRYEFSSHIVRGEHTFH
UniProt Q9UKT9, whole entry: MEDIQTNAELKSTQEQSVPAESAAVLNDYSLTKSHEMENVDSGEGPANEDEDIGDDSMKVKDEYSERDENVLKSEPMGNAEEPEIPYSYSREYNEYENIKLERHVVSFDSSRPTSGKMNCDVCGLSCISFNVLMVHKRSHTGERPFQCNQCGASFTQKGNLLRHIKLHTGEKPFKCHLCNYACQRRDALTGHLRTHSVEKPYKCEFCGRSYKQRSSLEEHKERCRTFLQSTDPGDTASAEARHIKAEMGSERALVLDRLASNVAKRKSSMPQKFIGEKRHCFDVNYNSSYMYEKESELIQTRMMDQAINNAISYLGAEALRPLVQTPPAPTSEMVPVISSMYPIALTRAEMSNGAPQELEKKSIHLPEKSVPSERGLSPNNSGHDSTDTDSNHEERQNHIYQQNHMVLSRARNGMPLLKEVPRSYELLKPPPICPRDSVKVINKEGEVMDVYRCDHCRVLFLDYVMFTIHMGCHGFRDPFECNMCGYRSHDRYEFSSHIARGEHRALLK
UniProt P30291, whole entry: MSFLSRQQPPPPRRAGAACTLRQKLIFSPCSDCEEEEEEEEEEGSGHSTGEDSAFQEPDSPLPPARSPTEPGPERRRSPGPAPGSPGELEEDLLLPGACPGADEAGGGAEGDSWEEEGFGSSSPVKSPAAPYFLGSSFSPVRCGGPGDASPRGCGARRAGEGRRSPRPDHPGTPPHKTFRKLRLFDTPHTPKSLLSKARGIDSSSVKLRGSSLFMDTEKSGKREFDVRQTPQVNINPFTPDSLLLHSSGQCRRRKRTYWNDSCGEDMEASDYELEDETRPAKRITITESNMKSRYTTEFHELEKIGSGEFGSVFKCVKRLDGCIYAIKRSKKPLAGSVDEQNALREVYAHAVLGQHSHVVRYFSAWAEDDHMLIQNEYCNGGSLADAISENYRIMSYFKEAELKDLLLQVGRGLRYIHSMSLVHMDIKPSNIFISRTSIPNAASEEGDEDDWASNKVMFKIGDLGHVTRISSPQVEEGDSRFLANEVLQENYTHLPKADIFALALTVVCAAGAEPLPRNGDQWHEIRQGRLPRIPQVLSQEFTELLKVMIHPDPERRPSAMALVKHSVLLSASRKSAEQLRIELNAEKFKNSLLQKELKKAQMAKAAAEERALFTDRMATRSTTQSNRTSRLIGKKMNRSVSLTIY
UniProt Q16531, whole entry partner: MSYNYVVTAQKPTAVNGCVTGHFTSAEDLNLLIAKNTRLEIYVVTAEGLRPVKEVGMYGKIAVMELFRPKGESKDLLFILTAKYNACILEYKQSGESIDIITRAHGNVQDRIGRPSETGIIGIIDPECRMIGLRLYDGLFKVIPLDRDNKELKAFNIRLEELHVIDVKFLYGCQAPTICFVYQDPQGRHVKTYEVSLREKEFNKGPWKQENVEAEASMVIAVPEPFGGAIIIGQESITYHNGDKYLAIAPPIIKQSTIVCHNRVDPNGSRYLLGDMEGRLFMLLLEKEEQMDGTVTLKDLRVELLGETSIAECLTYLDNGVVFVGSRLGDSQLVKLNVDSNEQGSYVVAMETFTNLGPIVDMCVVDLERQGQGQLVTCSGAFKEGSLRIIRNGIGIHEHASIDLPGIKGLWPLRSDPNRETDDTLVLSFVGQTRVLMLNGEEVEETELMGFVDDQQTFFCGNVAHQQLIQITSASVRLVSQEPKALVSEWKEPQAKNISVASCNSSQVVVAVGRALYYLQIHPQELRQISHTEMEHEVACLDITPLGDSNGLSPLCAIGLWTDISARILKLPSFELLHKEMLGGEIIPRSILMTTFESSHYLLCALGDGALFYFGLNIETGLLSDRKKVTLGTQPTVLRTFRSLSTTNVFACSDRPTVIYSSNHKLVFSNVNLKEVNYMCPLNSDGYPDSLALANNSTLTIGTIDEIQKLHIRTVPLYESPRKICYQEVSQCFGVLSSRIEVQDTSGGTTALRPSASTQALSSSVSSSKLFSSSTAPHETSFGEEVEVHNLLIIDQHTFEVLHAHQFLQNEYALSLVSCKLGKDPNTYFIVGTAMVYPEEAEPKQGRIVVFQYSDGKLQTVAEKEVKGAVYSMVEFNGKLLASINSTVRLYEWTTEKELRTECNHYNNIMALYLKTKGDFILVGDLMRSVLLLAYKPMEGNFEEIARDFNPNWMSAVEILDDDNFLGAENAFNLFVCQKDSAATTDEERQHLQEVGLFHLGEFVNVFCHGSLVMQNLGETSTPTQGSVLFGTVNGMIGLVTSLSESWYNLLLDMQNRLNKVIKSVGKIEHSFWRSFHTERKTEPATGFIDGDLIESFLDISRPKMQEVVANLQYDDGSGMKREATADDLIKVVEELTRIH

SMILES | Inhibition Rate (%) IL-2
O=C1CCN(N2Cc3cc(CN4CCC(N5CCN(c6cccc(Cl)c6Cl)CC5)CC4)ccc3C2=O)C(=O)N1 | IV11 (60% < IV11 ≤ 70%)
O=C1CCC(N2C(=O)c3ccc(CN4CCC(N5CCN(c6cccc(Cl)c6Cl)CC5)CC4)cc3C2=O)C(=O)N1 (stereo not shown) | IV9 (40% < IV9 ≤ 50%)
O=C1CCC(N2Cc3cc(CN4CCC(N5CCN(C(c6ccccc6)c6ccccn6)CC5)C(F)(F)C4)ccc3C2=S)C(=O)N1 (stereo not shown) | IV12 (70% < IV12 ≤ 80%)

Same assay, conditions: 1 µM; PBMCs, PHA 1 µg/mL, 24 h

SMILES | Inhibition Rate (%) IL-2
O=C1CCC(N2C(=O)c3ccc(CN4CCC(N5CCN(c6cccc(Cl)c6Cl)CC5)CC4)cc3C2=O)C(=O)N1 (stereo not shown) | IV7 (20% < IV7 ≤ 30%)

What follows are compounds tested on TNF-α in the same assay as above. Settings: 0.1 µM, PHA 1 µg/mL, 24 h.

SMILES | Inhibition Rate (%) TNF-α
CC1(C)CCC(C(=O)N2CCN(C3CCN(C(=O)c4cc5c(cc4F)C(=O)N(C4CCC(=O)NC4=O)C5)CC3(F)F)CC2)=C(c2ccc(Cl)cc2)C1 (stereo not shown) | IV5 (0% < IV5 ≤ 10%)
O=C1CCC(N2Cc3cc(CCN4CCC(N5CCN(c6cccc(Cl)c6Cl)CC5)CC4)ccc3C2=O)C(=O)N1 (stereo not shown) | IV9 (40% < IV9 ≤ 50%)
O=C1CCC(N2Cc3c(ccc(CN4CCC(N5CCN(c6noc7cc(F)ccc67)CC5)CC4)c3F)C2=O)C(=O)N1 (stereo not shown) | IV9 (40% < IV9 ≤ 50%)
O=C1CCC(N2Cc3cc(CCCN4CCC(N5CCN(c6noc7cc(F)ccc67)CC5)CC4)ccc3C2=O)C(=O)N1 (stereo not shown) | IV9 (40% < IV9 ≤ 50%)
O=C1CCN(N2Cc3cc(CN4CCC(N5CCN(c6cccc(Cl)c6Cl)CC5)CC4)ccc3C2=O)C(=O)N1 | IV9 (40% < IV9 ≤ 50%)
O=C1CCC(N2Cc3cc(CCCN4CCC(N5CCN(c6cccc(Cl)c6Cl)CC5)CC4)ccc3C2=O)C(=O)N1 (stereo not shown) | IV9 (40% < IV9 ≤ 50%)
O=C1CCC(N2C(=O)c3ccc(CN4CCC(N5CCN(c6cccc(Cl)c6Cl)CC5)CC4)cc3C2=O)C(=O)N1 (stereo not shown) | IV9 (40% < IV9 ≤ 50%)
O=C1CCC(N2Cc3cc(CN4CCC(N5CCN(C(c6ccccc6)c6ccccn6)CC5)C(F)(F)C4)ccc3C2=S)C(=O)N1 (stereo not shown) | IV9 (40% < IV9 ≤ 50%)

Same assay, conditions: 1 µM, PHA 1 µg/mL, 24 h

SMILES | Inhibition Rate (%) TNF-α
O=C1CCC(N2Cc3cc(CCN4CCC(N5CCN(c6cccc(Cl)c6Cl)CC5)CC4)ccc3C2=O)C(=O)N1 (stereo not shown) | IV9 (40% < IV9 ≤ 50%)
O=C1CCC(N2Cc3c(ccc(CN4CCC(N5CCN(c6noc7cc(F)ccc67)CC5)CC4)c3F)C2=O)C(=O)N1 (stereo not shown) | IV9 (40% < IV9 ≤ 50%)
O=C1CCN(N2Cc3cc(CN4CCC(N5CCN(c6cccc(Cl)c6Cl)CC5)CC4)ccc3C2=O)C(=O)N1 | IV8 (30% < IV8 ≤ 40%)
O=C1CCC(N2C(=O)c3ccc(CN4CCC(N5CCN(c6cccc(Cl)c6Cl)CC5)CC4)cc3C2=O)C(=O)N1 (stereo not shown) | IV8 (30% < IV8 ≤ 40%)
O=C1CCC(N2Cc3cc(CN4CCC(N5CCN(C(c6ccccc6)c6ccccn6)CC5)C(F)(F)C4)ccc3C2=S)C(=O)N1 (stereo not shown) | IV9 (40% < IV9 ≤ 50%)

What follows are compounds tested against CRBN (Homo sapiens, UniProt Q96SW2) (assay: CRBN binding affinity by HTRF (CEREBLON BINDING kit)). Settings: CRBN binding, HTRF, compound at 0.5 µM.

SMILES | Inhibition Rate at 0.5 µM (%)
CC1(C)CCC(C(=O)N2CCN(C3CCN(C(=O)c4cc5c(cc4F)C(=O)N(C4CCC(=O)NC4=O)C5)CC3(F)F)CC2)=C(c2ccc(Cl)cc2)C1 (stereo not shown) | a5 (53% < a5 ≤ 60%)
O=C1CCC(N2Cc3cc(CCN4CCC(N5CCN(c6cccc(Cl)c6Cl)CC5)CC4)ccc3C2=O)C(=O)N1 (stereo not shown) | a8 (80% < a8 ≤100%)
O=C1CCC(N2Cc3c(ccc(CN4CCC(N5CCN(c6noc7cc(F)ccc67)CC5)CC4)c3F)C2=O)C(=O)N1 (stereo not shown) | a4 (40% < a4 ≤ 53%)
O=C1CCC(N2Cc3cc(CCCN4CCC(N5CCN(c6noc7cc(F)ccc67)CC5)CC4)ccc3C2=O)C(=O)N1 (stereo not shown) | a7 (70% < a7 ≤80%)
O=C1CCC(N2Cc3cc(CCCN4CCC(N5CCN(c6cccc(Cl)c6Cl)CC5)CC4)ccc3C2=O)C(=O)N1 (stereo not shown) | a6 (60% < a6 ≤ 70%)

Same assay, conditions: CRBN binding, HTRF, compound at 2 µM

SMILES | Inhibition Rate at 2 µM (%)
CC1(C)CCC(C(=O)N2CCN(C3CCN(C(=O)c4cc5c(cc4F)C(=O)N(C4CCC(=O)NC4=O)C5)CC3(F)F)CC2)=C(c2ccc(Cl)cc2)C1 (stereo not shown) | a8 (80% < a8 ≤100%)
O=C1CCC(N2Cc3cc(CCN4CCC(N5CCN(c6cccc(Cl)c6Cl)CC5)CC4)ccc3C2=O)C(=O)N1 (stereo not shown) | a8 (80% < a8 ≤100%)
O=C1CCC(N2Cc3c(ccc(CN4CCC(N5CCN(c6noc7cc(F)ccc67)CC5)CC4)c3F)C2=O)C(=O)N1 (stereo not shown) | a7 (70% < a7 ≤80%)
O=C1CCC(N2Cc3cc(CCCN4CCC(N5CCN(c6noc7cc(F)ccc67)CC5)CC4)ccc3C2=O)C(=O)N1 (stereo not shown) | a8 (80% < a8 ≤100%)
O=C1CCC(N2Cc3cc(CCCN4CCC(N5CCN(c6cccc(Cl)c6Cl)CC5)CC4)ccc3C2=O)C(=O)N1 (stereo not shown) | a8 (80% < a8 ≤100%)

Same assay, conditions: read-out: HTRF IC50; human Cereblon WT GST-tagged protein; 3 hours at room temperature

SMILES | IC50
O=C1CCC(N2Cc3cc(CN4CCC(N5CCN(C(c6ccccc6)c6ccccn6)CC5)C(F)(F)C4)ccc3C2=S)C(=O)N1 (stereo not shown) | 500 to 1000 nM

These compounds were tested against CK1α (Homo sapiens, UniProt P48729+Q96SW2) (assay: Western blot assay of substrate protein degradation in hPBMCs). Settings: 24 hours treatment, compounds at 50 nM and 500 nM (concentration behind the class not stated).

SMILES | substrate protein remaining % (CK1a)
O=C1CCC(N2Cc3cc(CCN4CCC(N5CCN(c6cccc(Cl)c6Cl)CC5)CC4)ccc3C2=O)C(=O)N1 (stereo not shown) | B (80%< substrate protein remaining %≤ 100%)
O=C1CCC(N2Cc3cc(CCCN4CCC(N5CCN(c6cccc(Cl)c6Cl)CC5)CC4)ccc3C2=O)C(=O)N1 (stereo not shown) | B (80%< substrate protein remaining %≤ 100%)
O=C1CCC(N2C(=O)c3ccc(CN4CCC(N5CCN(c6cccc(Cl)c6Cl)CC5)CC4)cc3C2=O)C(=O)N1 (stereo not shown) | B (80%< substrate protein remaining %≤ 100%)
O=C1CCC(N2Cc3cc(CN4CCC(N5CCN(C(c6ccccc6)c6ccccn6)CC5)C(F)(F)C4)ccc3C2=S)C(=O)N1 (stereo not shown) | B (80%< substrate protein remaining %≤ 100%)

The compounds below were run against GSPT1 (Homo sapiens, UniProt P15170+Q96SW2) in the same assay as above. Settings: 24 hours treatment, compounds at 50 nM and 500 nM (concentration behind the class not stated).

SMILES | substrate protein remaining % (GSPT1)
O=C1CCC(N2Cc3cc(CCN4CCC(N5CCN(c6cccc(Cl)c6Cl)CC5)CC4)ccc3C2=O)C(=O)N1 (stereo not shown) | A (0% ≤ substrate protein remaining % ≤ 80%)
O=C1CCC(N2Cc3cc(CCCN4CCC(N5CCN(c6cccc(Cl)c6Cl)CC5)CC4)ccc3C2=O)C(=O)N1 (stereo not shown) | A (0% ≤ substrate protein remaining % ≤ 80%)
O=C1CCC(N2C(=O)c3ccc(CN4CCC(N5CCN(c6cccc(Cl)c6Cl)CC5)CC4)cc3C2=O)C(=O)N1 (stereo not shown) | B (80%< substrate protein remaining %≤ 100%)
O=C1CCC(N2Cc3cc(CN4CCC(N5CCN(C(c6ccccc6)c6ccccn6)CC5)C(F)(F)C4)ccc3C2=S)C(=O)N1 (stereo not shown) | B (80%< substrate protein remaining %≤ 100%)

What follows are compounds tested against IKZF1 (Homo sapiens, UniProt Q13422+Q96SW2) in the same assay as above. Settings: 24 hours treatment, compounds at 50 nM and 500 nM (concentration behind the class not stated).

SMILES | substrate protein remaining % (IKZF 1)
O=C1CCC(N2Cc3cc(CCN4CCC(N5CCN(c6cccc(Cl)c6Cl)CC5)CC4)ccc3C2=O)C(=O)N1 (stereo not shown) | B (80%< substrate protein remaining %≤ 100%)
O=C1CCC(N2Cc3cc(CCCN4CCC(N5CCN(c6cccc(Cl)c6Cl)CC5)CC4)ccc3C2=O)C(=O)N1 (stereo not shown) | A (0% ≤ substrate protein remaining % ≤ 80%)
O=C1CCC(N2C(=O)c3ccc(CN4CCC(N5CCN(c6cccc(Cl)c6Cl)CC5)CC4)cc3C2=O)C(=O)N1 (stereo not shown) | B (80%< substrate protein remaining %≤ 100%)
O=C1CCC(N2Cc3cc(CN4CCC(N5CCN(C(c6ccccc6)c6ccccn6)CC5)C(F)(F)C4)ccc3C2=S)C(=O)N1 (stereo not shown) | B (80%< substrate protein remaining %≤ 100%)

What follows are compounds tested against IKZF2 (Homo sapiens, UniProt Q96SW2+Q9UKS7) in the same assay as above. Settings: 24 hours treatment, compounds at 50 nM and 500 nM (concentration behind the class not stated).

SMILES | substrate protein remaining % (IKZF2)
O=C1CCC(N2Cc3cc(CCN4CCC(N5CCN(c6cccc(Cl)c6Cl)CC5)CC4)ccc3C2=O)C(=O)N1 (stereo not shown) | B (80%< substrate protein remaining %≤ 100%)
O=C1CCC(N2Cc3cc(CCCN4CCC(N5CCN(c6cccc(Cl)c6Cl)CC5)CC4)ccc3C2=O)C(=O)N1 (stereo not shown) | A (0% ≤ substrate protein remaining % ≤ 80%)
O=C1CCC(N2C(=O)c3ccc(CN4CCC(N5CCN(c6cccc(Cl)c6Cl)CC5)CC4)cc3C2=O)C(=O)N1 (stereo not shown) | B (80%< substrate protein remaining %≤ 100%)
O=C1CCC(N2Cc3cc(CN4CCC(N5CCN(C(c6ccccc6)c6ccccn6)CC5)C(F)(F)C4)ccc3C2=S)C(=O)N1 (stereo not shown) | B (80%< substrate protein remaining %≤ 100%)

These compounds were tested against IKZF3 (Homo sapiens, UniProt Q96SW2+Q9UKT9) in the same assay as above. Settings: 24 hours treatment, compounds at 50 nM and 500 nM (concentration behind the class not stated).

SMILES | substrate protein remaining % (IKZF3)
O=C1CCC(N2Cc3cc(CCN4CCC(N5CCN(c6cccc(Cl)c6Cl)CC5)CC4)ccc3C2=O)C(=O)N1 (stereo not shown) | B (80%< substrate protein remaining %≤ 100%)
O=C1CCC(N2Cc3cc(CCCN4CCC(N5CCN(c6cccc(Cl)c6Cl)CC5)CC4)ccc3C2=O)C(=O)N1 (stereo not shown) | A (0% ≤ substrate protein remaining % ≤ 80%)
O=C1CCC(N2C(=O)c3ccc(CN4CCC(N5CCN(c6cccc(Cl)c6Cl)CC5)CC4)cc3C2=O)C(=O)N1 (stereo not shown) | A (0% ≤ substrate protein remaining % ≤ 80%)
O=C1CCC(N2Cc3cc(CN4CCC(N5CCN(C(c6ccccc6)c6ccccn6)CC5)C(F)(F)C4)ccc3C2=S)C(=O)N1 (stereo not shown) | A (0% ≤ substrate protein remaining % ≤ 80%)

What follows are compounds tested against WEE1 (Homo sapiens, UniProt P30291+Q96SW2) in the same assay as above. Settings: 24 hours treatment, compounds at 50 nM and 500 nM (concentration behind the class not stated).

SMILES | substrate protein remaining % (WEE1)
O=C1CCC(N2Cc3cc(CCN4CCC(N5CCN(c6cccc(Cl)c6Cl)CC5)CC4)ccc3C2=O)C(=O)N1 (stereo not shown) | B (80%< substrate protein remaining %≤ 100%)
O=C1CCC(N2Cc3cc(CCCN4CCC(N5CCN(c6cccc(Cl)c6Cl)CC5)CC4)ccc3C2=O)C(=O)N1 (stereo not shown) | A (0% ≤ substrate protein remaining % ≤ 80%)
O=C1CCC(N2C(=O)c3ccc(CN4CCC(N5CCN(c6cccc(Cl)c6Cl)CC5)CC4)cc3C2=O)C(=O)N1 (stereo not shown) | B (80%< substrate protein remaining %≤ 100%)
O=C1CCC(N2Cc3cc(CN4CCC(N5CCN(C(c6ccccc6)c6ccccn6)CC5)C(F)(F)C4)ccc3C2=S)C(=O)N1 (stereo not shown) | B (80%< substrate protein remaining %≤ 100%)

— patent EP4834897A1, “COMPOUNDS WITH TWO AZAHETEROCYCLES SUBSTITUTED ISOINDOLINONE SKELETON AND USES THEREOF” (dated 2026)
